# Values quoted from earlier work in patent US20210299075A1 (priority 2020, published 2021).
# Conditions: Hendley et al.
smiles,measurement,value
Oc1c(Cl)cc(Cl)c(Cl)c1Cc1c(O)c(Cl)cc(Cl)c1Cl [hexachlorophene],antiviral activity,performed poorly
